According to PubChem BioAssay AID624038 (The Scripps Research Institute Molecular Screening Center, 2012):
The entries are a selection whose mix differs from that of the whole data set. Activity calls are given as the source filed them.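 Rule for the calls: active = activation above the run cutoff, the mean activation of all test compounds plus 3 SD (cut at about 18% in these data); inactive = the rest.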

By UniProt entry, the sequences of proteins in these tests, tags left out.
UniProt P08912, whole entry: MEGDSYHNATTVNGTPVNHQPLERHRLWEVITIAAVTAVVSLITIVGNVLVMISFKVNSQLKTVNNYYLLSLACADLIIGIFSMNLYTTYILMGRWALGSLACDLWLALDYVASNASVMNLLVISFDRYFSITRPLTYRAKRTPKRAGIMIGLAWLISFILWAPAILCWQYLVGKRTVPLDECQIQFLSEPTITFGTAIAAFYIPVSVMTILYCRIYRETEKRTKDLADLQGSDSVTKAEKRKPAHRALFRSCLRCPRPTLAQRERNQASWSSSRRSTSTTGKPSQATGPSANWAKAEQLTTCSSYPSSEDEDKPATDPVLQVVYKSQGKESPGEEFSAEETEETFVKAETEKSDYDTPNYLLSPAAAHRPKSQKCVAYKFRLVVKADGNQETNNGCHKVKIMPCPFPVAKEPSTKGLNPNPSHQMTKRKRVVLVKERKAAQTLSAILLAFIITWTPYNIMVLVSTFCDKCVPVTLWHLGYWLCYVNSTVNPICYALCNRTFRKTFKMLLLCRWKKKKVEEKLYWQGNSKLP

Biological target: Muscarinic acetylcholine receptor M5 (Homo sapiens) (UniProt P08912)
Test: CHRM5 PAMs potentiating acetylcholine calcium signal – CHO-K1 cells, Fluo-8 calcium fluorescence, primary screen (AID 624038)
Details: CHO-K1 hM5, Fluo-8 calcium, ACh EC20 PAM; at 3 µM; hits give high values; 0% = ACh EC20, 100% = ACh EC100

Question: `CN(C)CCOC(=O)C(O)(c1ccccc1)C1CCCC1` (stereo unspecified) was tested. Which activation did it give?
Answer: inactive: -23.2%

Question: `COc1ccccc1OP(C)(=O)Nc1ccc(Br)cc1` (stereo unspecified) was tested. Which activation did it give?
Answer: inactive: -1.99%

Question: `CCCCCCCCCCCCCCCC1C[N+](C)(C)CCOP(C)(=O)O1` (stereo unspecified) was tested. Which activation did it give?
Answer: inactive: -42%

Question: For `CP(=O)(Nc1ccc(Cl)cc1Cl)Oc1ccccc1` (stereo unspecified), which activation is on record?
Answer: inactive: 10.2%

Question: `CP(=O)(OCCOc1ccccc1)OCCOc1ccccc1` was tested. Which activation did it give?
Answer: inactive: 5.37%

Question: `COc1ccccc1OP(C)(=O)Nc1ccc(C)c(C)c1` (stereo unspecified) was tested. Which activation did it give?
Answer: inactive: -0.91%

Question: For `COc1ccc(OP(C)(=O)Nc2ccccc2Br)cc1` (stereo unspecified), which activation is on record?
Answer: inactive: -1.22%

Question: Which activation does the source give for `Cc1cc(C)cc(OP(C)(=O)Nc2cccc(C(F)(F)F)c2)c1` (stereo unspecified) here?
Answer: inactive: 2.38%

Question: How did the activation turn out when `O=C1C(O)=C([N+](=O)[O-])C(=O)C(O)=C1[N+](=O)[O-]` was run?
Answer: inactive: 4.8%

Question: How did the activation turn out when `CCOC(=O)c1ccc(NP(C)(=O)Oc2ccc(Cl)cc2)cc1` (stereo unspecified) was run?
Answer: inactive: 0.64%

Question: For `CP(=O)(OC12CC3CC(CC(C3)C1)C2)OC12CC3CC(CC(C3)C1)C2`, which activation is on record?
Answer: inactive: -4.54%

Question: With `CN(C)C(=O)c1c([N+](=O)[O-])cc([N+](=O)[O-])cc1[N+](=O)[O-]` as the compound, how does the activation read?
Answer: inactive: -3.79%

Question: `COc1ccccc1OP(C)(=O)Nc1ccccc1Br` (stereo unspecified) was tested. Which activation did it give?
Answer: inactive: 1.18%

Question: With `CC(C)(C)c1ccc(OP(C)(=O)O)cc1` as the compound, how does the activation read?
Answer: inactive: 0.6%

Question: `CP(=O)(Nc1ccc(Cl)cc1)Oc1ccc(F)cc1` (stereo unspecified) was tested. Which activation did it give?
Answer: inactive: -5.37%

Question: Which activation does the source give for `O=C(OCCCN1CCCC1)C(O)(c1ccccc1)C1CCCCC1` (stereo unspecified) here?
Answer: inactive: -36.2%

Question: `COc1ccccc1OP(C)(=O)Nc1c(C)n(C)n(-c2ccccc2)c1=O` (stereo unspecified) was tested. Which activation did it give?
Answer: inactive: 1.7%

Question: With `CCc1ccc(OP(C)(=O)Nc2cccnc2)cc1` (stereo unspecified) as the compound, how does the activation read?
Answer: inactive: 12.7%

Question: For `CP(=O)(Oc1ccccc1)N1CCOC1=O` (stereo unspecified), which activation is on record?
Answer: inactive: -0.14%

Question: With `COc1ccc(OP(C)(=O)Nc2ccc(Br)cc2)cc1` (stereo unspecified) as the compound, how does the activation read?
Answer: inactive: -4.16%

Question: Which activation does the source give for `CCN(CC)CC(O)COC(=O)C(O)(c1ccccc1)C1CCCCC1` (stereo unspecified) here?
Answer: inactive: -49.4%
